The substances below were run against human NaV1.7 (Homo sapiens (Human), UniProt Q15858) (assay: Patch voltage clamp electrophysiology assay, NaV1.7). Conditions: inactivated state; HEK-293 cells stably expressing NaV1.7 with β1 subunit; held at −60 mV; read-out: Human 1.7 EP (IC50 μM).
Format: cell-based

Chains of the proteins cited; added tags and fusions are not shown. A line that says so, or that is headed by a name, gives the form on record, which may keep a tag or linker.
UniProt Q15858, other isoform, or with tags, fused parts or gaps: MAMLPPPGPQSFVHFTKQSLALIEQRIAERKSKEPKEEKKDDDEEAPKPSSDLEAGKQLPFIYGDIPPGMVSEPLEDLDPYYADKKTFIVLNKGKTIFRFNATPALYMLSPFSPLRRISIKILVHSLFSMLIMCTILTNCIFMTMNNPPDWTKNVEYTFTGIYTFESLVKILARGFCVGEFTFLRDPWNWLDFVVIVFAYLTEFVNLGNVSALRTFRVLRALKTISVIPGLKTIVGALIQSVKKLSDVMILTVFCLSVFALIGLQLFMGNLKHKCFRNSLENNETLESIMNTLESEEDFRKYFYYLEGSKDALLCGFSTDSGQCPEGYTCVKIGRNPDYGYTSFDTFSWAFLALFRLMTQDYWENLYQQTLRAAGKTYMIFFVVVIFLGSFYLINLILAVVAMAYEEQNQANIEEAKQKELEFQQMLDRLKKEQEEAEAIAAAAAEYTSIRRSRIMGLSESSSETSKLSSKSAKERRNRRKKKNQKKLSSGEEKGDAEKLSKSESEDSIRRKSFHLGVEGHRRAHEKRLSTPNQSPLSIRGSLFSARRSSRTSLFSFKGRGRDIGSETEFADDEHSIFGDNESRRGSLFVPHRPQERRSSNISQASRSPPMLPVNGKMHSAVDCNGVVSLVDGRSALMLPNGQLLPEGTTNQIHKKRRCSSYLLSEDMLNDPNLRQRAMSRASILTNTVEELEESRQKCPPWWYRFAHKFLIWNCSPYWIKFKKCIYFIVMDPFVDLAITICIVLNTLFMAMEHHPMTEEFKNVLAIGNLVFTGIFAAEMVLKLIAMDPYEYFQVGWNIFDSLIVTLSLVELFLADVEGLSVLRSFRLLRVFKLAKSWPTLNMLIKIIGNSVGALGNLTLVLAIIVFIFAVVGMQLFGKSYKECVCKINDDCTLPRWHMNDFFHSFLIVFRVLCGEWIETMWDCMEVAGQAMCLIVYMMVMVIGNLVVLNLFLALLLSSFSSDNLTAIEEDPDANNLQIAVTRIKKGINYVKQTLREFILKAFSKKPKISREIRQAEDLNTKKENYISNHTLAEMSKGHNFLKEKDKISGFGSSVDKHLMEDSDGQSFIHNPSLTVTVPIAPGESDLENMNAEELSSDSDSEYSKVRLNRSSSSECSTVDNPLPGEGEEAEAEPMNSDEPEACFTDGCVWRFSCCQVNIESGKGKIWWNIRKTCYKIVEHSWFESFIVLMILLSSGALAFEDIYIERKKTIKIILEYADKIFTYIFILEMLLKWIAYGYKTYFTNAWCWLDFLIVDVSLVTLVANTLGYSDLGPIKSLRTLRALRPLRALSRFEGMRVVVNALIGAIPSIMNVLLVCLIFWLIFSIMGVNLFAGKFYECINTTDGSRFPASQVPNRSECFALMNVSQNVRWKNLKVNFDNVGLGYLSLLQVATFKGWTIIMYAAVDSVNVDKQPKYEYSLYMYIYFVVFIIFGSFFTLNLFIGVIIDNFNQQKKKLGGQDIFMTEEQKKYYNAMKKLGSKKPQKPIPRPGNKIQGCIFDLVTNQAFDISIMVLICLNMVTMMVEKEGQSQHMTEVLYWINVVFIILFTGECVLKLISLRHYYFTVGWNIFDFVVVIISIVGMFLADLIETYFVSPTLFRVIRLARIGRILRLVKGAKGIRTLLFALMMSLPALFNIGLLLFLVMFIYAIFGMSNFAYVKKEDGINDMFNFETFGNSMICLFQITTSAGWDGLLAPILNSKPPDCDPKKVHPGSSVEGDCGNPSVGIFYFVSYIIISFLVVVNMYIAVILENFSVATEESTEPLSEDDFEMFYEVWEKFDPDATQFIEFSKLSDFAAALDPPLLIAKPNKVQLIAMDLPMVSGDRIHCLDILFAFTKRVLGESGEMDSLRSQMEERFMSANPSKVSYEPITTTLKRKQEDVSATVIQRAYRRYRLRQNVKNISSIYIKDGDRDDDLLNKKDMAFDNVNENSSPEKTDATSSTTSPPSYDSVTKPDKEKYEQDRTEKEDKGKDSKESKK

First: 4-(2-(adamantan-1-yl)ethoxy)-5-chloro-2-fluoro-N-(methylsulfonyl)benzamide [Example 5]
Second: 4-(adamantan-1-ylmethoxy)-5-chloro-2-fluoro-N-(methylsulfonyl)benzamide [Example 8]
The IC50 of the first is 5.3-fold higher: 0.0201 µM for the first, 0.0038 µM for the second. The second is the more potent here.

First: 4-(adamantan-1-ylmethoxy)-5-cyclopropyl-2-fluoro-N-((3-hydroxyazetidin-1-yl)sulfonyl)benzamide [Example 106]
Second: 5-chloro-2-fluoro-4-((3-fluoroadamantan-1-yl)methoxy)-N-(methylsulfonyl)benzamide [Example 11]
The IC50 of the first is 9.7-fold higher: 0.0847 µM for the first, 0.0087 µM for the second.

Going from “5-chloro-2-fluoro-4-((3-methoxyadamantan-1-yl)methoxy)-N-(methylsulfonyl)benzamide [Example 18]” to “5-chloro-2-fluoro-4-(((1S,2R,5S)-2-isopropyl-5-methylcyclohexyl)oxy)-N-(methylsulfonyl)benzamide [Example 148]”, the IC50 falls from 0.356 µM to 0.0014 µM (250-fold).

“5-chloro-2-fluoro-N-(methylsulfonyl)-4-((4-pentylbicyclo-[2.2.2]octan-1-yl)methoxy)benzamide [Example 20]” and “5-chloro-2-fluoro-N-(methylsulfonyl)-4-(((1S,2R,4S)-1,7,7-trimethylbicyclo[2.2.1]heptan-2-yl)oxy)benzamide [Example 14]” are within 1.5-fold of each other in IC50: 0.0563 µM for the first, 0.0377 µM for the second.

Going from “5-chloro-2-fluoro-N-(methylsulfonyl)-4-(((1S,2S,3S,5R)-2,6,6-trimethylbicyclo[3.1.1]heptan-3-yl)oxy)benzamide [Example 9]” to “5-chloro-4-(2-cyclopropylethoxy)-2-fluoro-N-(methylsulfonyl)benzamide [Example 10]”, the IC50 rises from 0.0052 µM to 0.0082 µM (1.6-fold). The first is the more potent here.

First: 5-chloro-4-((4,4-difluoroadamantan-1-yl)methoxy)-N-(N,N-dimethylsulfamoyl)-2-fluorobenzamide [Example 135]
Second: 5-chloro-4-(((1R,5S)-6,6-dimethylbicyclo[3.1.1]hept-2-en-2-yl)methoxy)-2-fluoro-N-(methylsulfonyl)benzamide [Example 60]
The IC50 of the first is 100-fold higher: 0.0304 µM for the first, 0.0003 µM for the second.

First: 5-chloro-4-((-3, 5-dimethyladamantan-1-yl)methoxy)-2-fluoro-N-(methylsulfonyl)benzamide [Example 16]
Second: 6-(adamantan-1-ylmethoxy)-5-cyclopropyl-N-(methylsulfonyl)nicotinamide [Example 150]
The IC50 of the first is 7.3-fold higher: 0.0312 µM for the first, 0.0043 µM for the second. The second is the more potent here.

From patent publication US9771376B2 (GENENTECH, INC., priority 2000, dated 2017)
